Activity calls are given as the source filed them. The calls are words filed in the database; no cut-off is given here.
How the values were obtained:
[1] = target: T1, Ubiquitin carboxyl-terminal hydrolase 10 (Homo sapiens, UniProt Q14694); assay: Inhibition of human USP10 deubiquitinase activity using Ubiquitin 7-amino-4-carbamoylmethylcoumarin as substrate at 10 uM preincubated for 30 mins followed by substrate addition and measured after 30 mins by fluorometric assay; details: time 60.0 min
Homo sapiens = species: Homo sapiens; assay: Inhibition of TEAD/YAP (unknown origin) at 20 uM measured after 24 hrs by luminescence based renilla luciferase reporter assay relative to control
[2] = target: T1, Ubiquitin carboxyl-terminal hydrolase 10; assay: Inhibition of human USP10 deubiquitinase activity using Ubiquitin 7-amino-4-carbamoylmethylcoumarin as substrate at 20 uM preincubated for 30 mins followed by substrate addition and measured after 30 mins by fluorometric assay relative to control; details: time 60.0 min
[3] = target: T1, Ubiquitin carboxyl-terminal hydrolase 10; assay: Inhibition of USP10 in human Bel-7402 cells assessed as induction of YAP degradation by Western blot analysis; type: cell-based; details: dose 2.5-20 µM

Sequences of proteins named here, by UniProt entry; tags and fusion partners are left off.
UniProt Q14694, whole entry: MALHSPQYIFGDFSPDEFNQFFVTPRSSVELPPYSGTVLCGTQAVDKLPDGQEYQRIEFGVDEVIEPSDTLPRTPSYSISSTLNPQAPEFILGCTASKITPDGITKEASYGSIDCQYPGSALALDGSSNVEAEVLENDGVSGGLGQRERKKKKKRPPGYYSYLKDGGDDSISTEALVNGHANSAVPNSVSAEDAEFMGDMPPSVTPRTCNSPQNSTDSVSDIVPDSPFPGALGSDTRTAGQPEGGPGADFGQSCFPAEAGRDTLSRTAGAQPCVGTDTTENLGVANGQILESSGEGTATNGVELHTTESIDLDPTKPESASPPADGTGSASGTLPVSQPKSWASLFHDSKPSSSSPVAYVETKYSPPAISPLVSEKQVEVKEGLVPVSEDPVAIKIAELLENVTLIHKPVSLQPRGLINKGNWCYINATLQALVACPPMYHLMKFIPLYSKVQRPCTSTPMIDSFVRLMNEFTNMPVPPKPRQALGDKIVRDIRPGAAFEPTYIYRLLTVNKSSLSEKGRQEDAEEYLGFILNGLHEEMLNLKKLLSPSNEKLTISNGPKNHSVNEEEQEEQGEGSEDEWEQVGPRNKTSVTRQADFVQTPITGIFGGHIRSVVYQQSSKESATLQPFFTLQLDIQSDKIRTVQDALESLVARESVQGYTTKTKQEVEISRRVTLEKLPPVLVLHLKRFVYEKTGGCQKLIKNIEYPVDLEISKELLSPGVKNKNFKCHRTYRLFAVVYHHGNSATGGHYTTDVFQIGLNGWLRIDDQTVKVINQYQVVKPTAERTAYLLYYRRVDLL

inhibition [1] | inhibition (Homo sapiens) | inhibition [2] | inhibition [3] | Compound
Active |  |  |  | Cc1ccc2c(=O)c(C(=O)Nc3ccccc3C)cn(CC(=O)NCCc3ccc(Cl)cc3)c2n1
 | 41.3% | 48.5% |  | Cc1ccc2c(=O)c(-c3nc(-c4ccc(Cl)cc4)no3)cn(Cc3cccc(F)c3)c2n1
 | inactive | inactive |  | Cc1ccc2c(=O)c(S(=O)(=O)c3cccc(F)c3)cn(CC(=O)Nc3ccccc3F)c2n1
 | inactive | 31.8% |  | CCn1nc(C)c2nc(SCC(=O)Nc3cccc(C(C)=O)c3)n(Cc3ccc(C)cc3)c(=O)c21
 | 32.1% | 45.8% |  | Cc1ccc2c(=O)c(-c3nc(-c4ccccc4C)no3)cn(CC(=O)NCc3ccc(F)cc3)c2n1
 | inactive | 42.6% |  | CC(=O)c1cccc(NC(=O)Cn2nc3c4cc(-c5ccc(C)c(C)c5)nn4ccn3c2=O)c1
 | inactive | inactive |  | COC(=O)c1ccccc1NC(=O)Cn1cc(-c2nc(-c3cccc(F)c3)no2)c(=O)c2ccc(C)nc21
 | inactive | inactive |  | Cc1ccc2c(=O)c(C(=O)c3cccc(Cl)c3)cn(CC(=O)Nc3ccccc3F)c2n1
 | inactive | 40.5% |  | Cc1ccc2c(=O)c(-c3nc(-c4cccc(F)c4)no3)cn(CC(=O)NCc3ccco3)c2n1
 | 69.5% | 83.4% |  | Cc1ccc2c(=O)c(-c3nc(-c4ccccc4C)no3)cn(CC(=O)NCCc3ccc(Cl)cc3)c2n1
 | 80.9% | 63.8% | Dose-Dependent Effect | Cc1ccc2c(=O)c(-c3nc(-c4ccccc4C)no3)cn(CC(=O)Nc3c(F)cccc3F)c2n1
 | inactive | 2.4% |  | COc1ccc(NC(=O)Cn2cc(-c3nc(-c4ccccc4C)no3)c(=O)c3ccc(C)nc32)cc1Cl
 | 52.4% | 89.5% |  | COc1ccc(-c2noc(-c3cn(CC(=O)Nc4ccc(F)cc4F)c4nc(C)ccc4c3=O)n2)cc1
 | 26.9% | 20.8% |  | Cc1ccc2c(=O)c(-c3nc(-c4ccccc4C)no3)cn(CC(=O)NC3CCCCC3)c2n1
 | 40.3% | 54.6% |  | CC(=O)c1cccc(NC(=O)Cn2cc(-c3nc(-c4cccc(C)c4)no3)c(=O)c3ccc(C)nc32)c1
 | inactive | 28.1% |  | Cc1ccc2c(=O)c(-c3nc(-c4ccccc4C)no3)cn(CC(=O)N3CCc4ccccc43)c2n1
 | inactive | 10.1% |  | CCn1nc(C)c2c1c(=O)n(Cc1ccccc1)c(=O)n2CC(=O)Nc1cccc(C(C)=O)c1
 | inactive | 33.5% |  | CC(=O)c1cccc(NC(=O)Cn2ccn3nc(-c4ccc(C)cc4)cc3c2=O)c1
 | inactive | 35.2% |  | Cc1ccccc1-c1noc(-c2sc3ncn(CC(=O)Nc4ccccc4Cl)c(=O)c3c2C)n1
